Results as given in US11725004B2, “(Cyano-dimethyl-methyl)-isoxazoles and -[1,3,4]thiadiazoles” (Centrexion Therapeutics Corporation, priority 2013, dated 2023).

By UniProt entry, the sequences of proteins in these tests, tags left out.
UniProt P21554, whole entry: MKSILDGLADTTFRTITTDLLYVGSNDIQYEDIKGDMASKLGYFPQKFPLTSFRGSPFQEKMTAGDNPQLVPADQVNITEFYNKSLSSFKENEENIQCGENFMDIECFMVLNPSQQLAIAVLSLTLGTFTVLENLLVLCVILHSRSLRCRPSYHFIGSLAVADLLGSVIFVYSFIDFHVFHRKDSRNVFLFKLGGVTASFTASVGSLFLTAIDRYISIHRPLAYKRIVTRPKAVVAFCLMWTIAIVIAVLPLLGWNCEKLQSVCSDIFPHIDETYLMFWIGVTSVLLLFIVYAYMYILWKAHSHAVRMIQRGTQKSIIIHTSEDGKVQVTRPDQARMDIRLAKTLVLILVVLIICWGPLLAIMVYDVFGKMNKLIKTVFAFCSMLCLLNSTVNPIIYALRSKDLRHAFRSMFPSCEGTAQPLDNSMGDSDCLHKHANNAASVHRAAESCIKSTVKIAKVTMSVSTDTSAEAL

Biological target: human CB1R (Homo sapiens (Human), UniProt P21554)
Assay: CB1 cAMP (Assay 2): in vitro testing of CB1 potency
Assay type: cell-based
Settings: CHO cells expressing human CB1R; inhibition of forskolin-stimulated cAMP

CC(C)(C#N)c1cc(NC(=O)[C@@H]2CCCN2C2CCOCC2)on1 [Example 6, (S)-1-(Tetrahydro-pyran-4-yl)-pyrrolidine-2-carboxylic acid[3-(cyano-dimethyl-methyl)-isoxazol-5-yl]-amide]
IC50: 87 µM
